Cell death in GFP positive cells data for one substance are collected here from patent US20060172958A1, “Phospholipid scramblase 3” (priority 2003, published 2006).

Sequences of proteins named here, by UniProt entry; tags and fusion partners are left off.
UniProt Q9NRY6, whole entry F258V: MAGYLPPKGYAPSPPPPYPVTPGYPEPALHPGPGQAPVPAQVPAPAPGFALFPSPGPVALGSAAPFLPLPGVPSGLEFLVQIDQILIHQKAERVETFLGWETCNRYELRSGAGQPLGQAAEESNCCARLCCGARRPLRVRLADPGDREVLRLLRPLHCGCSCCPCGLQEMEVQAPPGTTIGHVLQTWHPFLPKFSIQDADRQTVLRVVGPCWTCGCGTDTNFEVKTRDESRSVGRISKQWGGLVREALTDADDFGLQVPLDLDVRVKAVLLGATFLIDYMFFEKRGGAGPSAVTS

In the test the target is PLS3(F258V) mutant (human) (UniProt Q9NRY6). Put plainly: cell-based or functional assay.

For the substance “Bcl-B (untagged, from pcDNA-Bcl-B or pBcl-B-IRES-EGFP) (from UniProt Q9HD36 1-204)”, the cell death in GFP positive cells was found to be 7.5%.
